Results reported in US20060257934A1 (priority 2005, published 2006).

The chains behind the UniProt entries cited, without tags or fusion partners. Residues count along the entry.
UniProt P18508, 39-466: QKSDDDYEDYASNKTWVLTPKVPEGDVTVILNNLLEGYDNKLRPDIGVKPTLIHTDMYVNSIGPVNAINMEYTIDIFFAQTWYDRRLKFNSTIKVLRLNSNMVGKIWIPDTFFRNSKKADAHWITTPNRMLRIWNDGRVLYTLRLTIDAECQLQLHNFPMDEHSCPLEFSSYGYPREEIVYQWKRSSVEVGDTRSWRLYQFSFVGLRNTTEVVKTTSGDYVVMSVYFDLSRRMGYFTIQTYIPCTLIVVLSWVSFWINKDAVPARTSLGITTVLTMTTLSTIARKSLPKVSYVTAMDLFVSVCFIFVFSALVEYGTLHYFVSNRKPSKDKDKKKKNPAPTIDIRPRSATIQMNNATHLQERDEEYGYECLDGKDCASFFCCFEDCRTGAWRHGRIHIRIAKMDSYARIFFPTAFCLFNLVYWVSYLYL
UniProt P62813, 28-455: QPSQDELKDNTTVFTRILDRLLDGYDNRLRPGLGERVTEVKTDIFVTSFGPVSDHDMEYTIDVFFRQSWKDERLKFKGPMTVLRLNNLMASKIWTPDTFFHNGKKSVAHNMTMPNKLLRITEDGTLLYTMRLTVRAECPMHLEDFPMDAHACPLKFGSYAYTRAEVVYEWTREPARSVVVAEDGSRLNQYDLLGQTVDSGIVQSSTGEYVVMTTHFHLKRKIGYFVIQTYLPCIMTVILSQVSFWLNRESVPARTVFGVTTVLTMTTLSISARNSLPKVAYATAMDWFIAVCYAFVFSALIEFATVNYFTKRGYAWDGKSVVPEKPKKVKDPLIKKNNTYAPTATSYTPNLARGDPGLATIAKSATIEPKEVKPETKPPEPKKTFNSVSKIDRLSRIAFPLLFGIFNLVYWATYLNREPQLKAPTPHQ
UniProt P63138, 25-474 limits assumed: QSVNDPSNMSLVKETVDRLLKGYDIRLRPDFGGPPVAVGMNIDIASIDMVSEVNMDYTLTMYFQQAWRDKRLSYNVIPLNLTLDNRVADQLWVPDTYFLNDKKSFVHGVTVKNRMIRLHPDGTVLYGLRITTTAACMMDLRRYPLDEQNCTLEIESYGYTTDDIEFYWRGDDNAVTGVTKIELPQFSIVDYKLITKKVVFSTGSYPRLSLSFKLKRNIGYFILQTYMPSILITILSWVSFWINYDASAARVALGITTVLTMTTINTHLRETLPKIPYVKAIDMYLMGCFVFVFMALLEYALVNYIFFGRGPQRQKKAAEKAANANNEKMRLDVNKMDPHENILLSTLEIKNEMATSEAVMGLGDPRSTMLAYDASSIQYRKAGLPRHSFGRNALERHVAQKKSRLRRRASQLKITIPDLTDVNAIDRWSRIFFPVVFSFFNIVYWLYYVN

Molecular target: T1, GABAA receptor (rat α1β2 γ2) (Rattus norvegicus, UniProt P18508+P62813+P63138)
T1 construct: expressed in transfected cells
Experiment: cell-based
Conditions: read-out: EC50, positive modulation of GABA-induced response

## CC(=O)[C@H]1CC[C@H]2[C@@H]3CC[C@H]4C[C@H](O)CC[C@]4(C)[C@H]3CC[C@]12C [allopregnanolone]
  EC50: 42.5 ± 16.9 nM
